Experimental data reported in patent US8268848B2, “Cyclopropane compound” (Eisai R&D Management Co., Ltd., priority 2010, dated 2012).

The chains behind the UniProt entries cited, without tags or fusion partners.
UniProt O43614, whole entry: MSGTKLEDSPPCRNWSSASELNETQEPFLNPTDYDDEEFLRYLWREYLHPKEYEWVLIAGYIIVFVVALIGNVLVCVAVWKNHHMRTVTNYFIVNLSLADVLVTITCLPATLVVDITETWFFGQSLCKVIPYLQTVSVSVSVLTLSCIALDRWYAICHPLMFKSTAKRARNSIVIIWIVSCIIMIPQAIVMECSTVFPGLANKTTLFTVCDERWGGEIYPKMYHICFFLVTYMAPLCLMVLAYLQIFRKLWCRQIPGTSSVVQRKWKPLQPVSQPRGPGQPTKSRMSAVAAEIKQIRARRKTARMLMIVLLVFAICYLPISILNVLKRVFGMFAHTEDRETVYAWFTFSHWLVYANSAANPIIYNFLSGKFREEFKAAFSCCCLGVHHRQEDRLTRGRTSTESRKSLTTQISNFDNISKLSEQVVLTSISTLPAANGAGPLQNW

Experiments:
OX2 [1] = biological target: T1, OX2 (Homo sapiens, UniProt O43614); experiment: Measurement of orexin receptor-binding ability ([125I]-OX-A, cell membranes, OX2); parameters: expressed in transfected cells; host or cells: CHO cells (membrane preparation); settings: OX2 (IC50) nM, membranes of recombinant CHO cells expressing OX2, 0.2 nM [125I]-OX-A
Experimental: 1. Measurement of Orexin Receptor-Binding Ability
The assay was carried out using a 96-well Wheat Germ Agglutinin Flash Plate (PerkinElmer). The volume in a single assay well was 100 ul, and the composition of the reaction solution was as follows:
25 mM HEPES (pH 7.5), 1 mM CaCl2, 4.5 mM MgCl2, 0.5% BSA (bovine serum albumin), 0.1% sodium azide, 0.05% Tween-20, and 0.2% DMSO.
Cell membranes were prepared from recombinant CHO cells that expressed OX2 or OX1. The cell membranes were used in an amount of 5 μg protein/assay. […] Finally, the radioactivity of each well was measured using a scintillation counter (TopCount, PerkinElmer).

OX2 [2] = biological target: T1, OX2; experiment: Measurement of antagonism (PLAP assay), OX2; type: cell-based; parameters: expressed in transfected cells; host or cells: HEK-293 cells, expression vector pBabeCLIH
Experimental: 2. Measurement of Antagonism (PLAP Assay)
The antagonistic function of the compound of the present invention to prevent the activation of OX2 and OX1 by orexin-A (OX-A), which is a natural peptide agonist, was measured using a cell-based reporter assay. […] The cells were plated at a density of 10,000 cells/well onto a non-coated 96-well plate in Dulbecco's modified Eagle medium (Sigma Cat No. D6046:10% v/v heat-inactivated fetal bovine serum was contained). The cells were cultured at 37° C. overnight, so that they could adhere to the plate. On the following day, cells were incubated with a compound of the present invention dissolved in Dulbecco's modified Eagle medium (Sigma Cat No. A8806:0.1% w/v bovine serum albumin was contained), and added to the cell plate to reach a final concentration of 0.1% dimethyl sulfoxide.
The thus obtained mixture was incubated at room temperature for 1 hour. Thereafter, human OX-A and forskolin were dissolved in the same medium as described above, which contained fetal bovine serum albumin, and the medium was then added to the cells, resulting in a final concentration of 300 nM forskolin. Subsequently, the cells were cultured at 37° C. for approximately 18 to 24 hours.

`Cc1ncc(OC[C@@]2(c3cccc(F)c3)C[C@H]2C(=O)Nc2ccc(F)cn2)c(C)n1` [Example 95, (1R,2S)-2-{[(2,4-dimethylpyrimidin-5-yl)oxy]methyl}-2-(3-fluorophenyl)-N-(5-fluoropyridin-2-yl)cyclopropanecarboxamide] was tested, and the IC50 (OX2 [1]) was 5.2 nM and the Ki (OX2 [2]) was 0.69 nM.
